This is an account of results in BindingDB's records for 16690315.

By UniProt entry, the sequences of proteins in these tests, tags left out. Chains listed by the source or under a name are the forms on record and can include a tag or linker. Residues count along the entry.
UniProt Q99705, 1-353 with tags or gaps: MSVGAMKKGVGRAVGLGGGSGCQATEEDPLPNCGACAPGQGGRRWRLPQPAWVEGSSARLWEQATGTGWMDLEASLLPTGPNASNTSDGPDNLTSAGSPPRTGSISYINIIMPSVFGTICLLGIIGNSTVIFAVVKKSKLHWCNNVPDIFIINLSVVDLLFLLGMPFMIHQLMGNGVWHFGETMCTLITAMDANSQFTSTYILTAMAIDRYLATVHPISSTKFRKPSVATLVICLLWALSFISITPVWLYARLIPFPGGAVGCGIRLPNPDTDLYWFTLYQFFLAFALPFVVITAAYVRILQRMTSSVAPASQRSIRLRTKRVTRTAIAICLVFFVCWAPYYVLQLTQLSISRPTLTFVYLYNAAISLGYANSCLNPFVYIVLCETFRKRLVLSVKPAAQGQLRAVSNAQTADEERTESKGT

Only a part of the results on these compounds is given; other tests are left out.

The test has as its target Melanin-concentrating hormone receptor 1 (Homo sapiens, UniProt Q99705). Kind of test: Binding affinity to human MCHR1 assessed as inhibition of MCH-mediated calcium ion influx by FLIPR assay.

By Ki is commonly meant a measure of affinity in units of concentration, obtained from inhibition or displacement. Take `N#Cc1cccc(-c2ccc(N(C(=O)Nc3cc(Cl)cc(Cl)c3)C3CCN(C4CCCC4)CC3)cc2)c1`: the Ki turned out to be 2.5 nM.
